# Assay: Aqueous solubility at ambient conditions
# Format: physicochemical
# Settings: for (SolPt(IV)/SolPt(II)): solubility ratio to cis-amminedichloro(2-methylpyridine)platinum(II)
Molecule,Aqueous Solubility (ambient conditions),Ratio to Solubility of bis-butyrato-ammine-(cyclohexylamine)dichloro platinum (IV) (ambient conditions),Ratio to Solubility of cis-ammine(2-methylpyridine)Dichloroplatinum (II) (ambient conditions),Ratio to Solubility of cisplatin (ambient conditions),(SolPt(IV)/SolPt(II))
ammine(chloro)trihydroxo(2-methylpyridine)platinum(IV) [Compound A],80 mg/mL,400,114.3,80,114.3
CC(=O)[O][Pt]([Cl])([O]C(C)=O)[O]C(C)=O.Cc1ccccn1.N [Compound D],,,114.3,,114.3

# Reference: patent US6413953B1, “Pt(IV) antitumor agent” (AnorMED Inc., priority 1999, dated 2002)
